# Test results published in PubChem BioAssay AID1347075 (National Center for Advancing Translational Sciences (NCATS), 2019).
# This is a selection; strong and weak results do not stand in their true shares. Results filed as inconclusive are left out. The source made the active and inactive calls. Calls come from the whole dose curve; as a rule, active = well fitted cell-killing curve with a large enough effect; inconclusive = small, poorly fitted or top-dose-only effect, or effect the other way; inactive = flat fitted curve, though single readings scatter.
# Experiment: qHTS assay for MDR1-selective chemotherapeutics: Primary screen using the parental adenocarcinoma cell KB-3-1; note: nearly all actives have a fitted effect of over 60% in size
# Conditions: KB-3-1 viability, CellTiter-Glo ATP luminescence, 72 h; at 46.1 µM (top of the series)
# Excerpt: A prime difficulty in effectively treating cancer is the development of cellular resistance to multiple structurally unrelated anticancer drugs, a phenomenon known as multidrug resistance (MDR). […] Numerous strategies to overcome P-gp-mediated MDR have been explored, including the design of drugs that evade recognition and efflux, and development of inhibitors to block efflux and restore drug accumulation. […] An alternative approach is to exploit resistance by identifying drugs that target MDR cells over the non-resistant parental cells from which they were selected. […] The development of MDR1-selective agents represents a new strategy for resolving multidrug resistance, as it remains a long-standing clinical challenge for cancer chemotherapy.
# Our goal is to identify compounds that selectively kill P-gp-expressing MDR cells. We will identify MDR1-selective compounds by comparing toxicity of compounds in the screening library against parental, drug-naive (KB-3-1) adenocarcinoma cells as well as their drug-selected MDR sub-line (KB-V1). The differential toxicity of compounds against these two cell lines will be used to identify MDR1-selective compounds, whose cytotoxicity is potentiated, rather than diminished, by P-gp expression. This assay will be utilized to conduct a quantitative high-throughput screen (qHTS) in collaboration with the NIH Chemical Genomics Center to identify selective agents, and probe hits arising from the screen will be validated using secondary assays and characterized through a well-established follow-up research program. This screen was run against the entire NCGC library collection of about 400,000 compounds.
# NIH Molecular Libraries Probe Production Network [MLPCN]
# NIH Chemical Genomics Center [NCGC]
# PI: Michael Gottesman PhD, National Cancer Institute, NIH
# Briefly, 5 microL of media containing either KB-3-1 cells (columns 1-2, 4-48) are dispensed into Greiner white, treated solid-bottom 1536-well assay plates (media-only control is added to column 3). Compounds are then transferred via Kalypsys pin tool equipped with 1536-pin array (10 nL slotted pins, V&P Scientific, San Diego, CA). Following addition of compound, the plates are incubated at 37 degrees C for 72 hours. CellTiter-Glo (2.5 µL/well) is then added, and the plates are read in a ViewLux reader (Perkin-Elmer, clear luminescence filter, 1 second exposure, 1x binning) following a 10 minute incubation. All cells are dispensed in DMEM phenol-red free media containing 10% FBS.
# Library plates were screened starting from the lowest and proceeding to the highest concentration. Vehicle-only plates, with DMSO being pin-transferred to columns 5-48, will be inserted uniformly at the beginning and the end of each library in order to monitor and record any shifts in the background, which can be affected by reagent dispensers or loss in enzyme activity over time. Screening data will be corrected, normalized, and concentration-effect relationships will be derived by using publicly-available NCGC, NCATS curve fitting algorithms (http://ncgc.nih.gov/pub/openhts).
# % is set by controls: 0 for no effect and ±100 for the full control effect.
row,SMILES,"activity change, negative = cytotoxic"
1,CP(=O)(Nc1ccccc1)Oc1ccc(F)cc1 (stereo not given),inactive: 1.42%
2,CCN(CC)CCCOC(=O)C(O)(c1ccccc1)C1CCCCC1 (stereo not given),inactive: -0.623%
3,Cc1c([N+](=O)[O-])cc([N+](=O)[O-])c(Br)c1[N+](=O)[O-],inactive: 6.41%
4,CC(C)c1ccc(OP(C)(=O)Nc2ccc(SC(F)(F)F)cc2)cc1 (stereo not given),inactive: 17.8%
5,CP(=O)(Nc1ccccc1F)Oc1ccccc1 (stereo not given),inactive: -7.39%
6,O=C(OCCN1CCN(CCOCc2ccccc2)CC1)C(O)(c1ccccc1)c1ccccc1,inactive: -0.454%
7,CCOP(C)(=S)SCC(=O)NC(C)(CC)C(=O)O (stereo not given),inactive: -0.598%
8,CP(=O)(Nc1ccc(SC(F)(F)F)cc1)Oc1ccc(F)cc1 (stereo not given),inactive: -0.393%
9,O=[N+]([O-])c1cc([N+](=O)[O-])c(C(F)(F)F)c([N+](=O)[O-])c1O,inactive: -13.9%
10,Cc1ccccc1NP(C)(=O)Nc1ccccc1C,inactive: 15.9%
11,CP(=O)(Nc1ccc2c(c1)OCCO2)Oc1ccccc1 (stereo not given),inactive: -3.47%
12,COc1ccc(NP(C)(=O)Oc2ccccc2OC)cc1 (stereo not given),inactive: 10.7%
13,CN(C)CCOC(=O)C(O)(c1ccccc1)C1CCCCC1 (stereo not given),inactive: 8.47%
14,COc1ccc(OP(C)(=O)Nc2cccc(Br)c2)cc1 (stereo not given),inactive: -0.135%
15,Cc1c(C(c2ccc3c(c2)OCO3)c2c(C)n(C)n(-c3ccccc3)c2=O)c(=O)n(-c2ccccc2)n1C.O=[N+]([O-])c1cc([N+](=O)[O-])c(O)c([N+](=O)[O-])c1,inactive: -12.2%
16,O=[N+]([O-])c1ccc(OP2(=O)COCCO2)cc1 (stereo not given),inactive: 5.18%
17,CP(=O)(OC12CC3CC(CC(C3)C1)C2)OC12CC3CC(CC(C3)C1)C2,inactive: -21.1%
18,CCOC(=O)c1ccc(NP(C)(=O)Oc2ccc(Cl)cc2)cc1 (stereo not given),inactive: 7.97%
19,Nc1ccc2c(ccc3cccnc32)n1.O=[N+]([O-])c1cc([N+](=O)[O-])c(O)c([N+](=O)[O-])c1,inactive: 4.01%
20,CCc1ccc(OP(C)(=O)Nc2cccnc2)cc1 (stereo not given),inactive: 26.1%

row,SMILES,"activity change, negative = cytotoxic"
1,CP(=O)(Oc1ccccc1)N1CCOC1=O (stereo not given),inactive: -0.267%
2,O=C(OCCCN1CCCC1)C(O)(c1ccccc1)C1CCCCC1 (stereo not given),inactive: -0.462%
3,COc1ccccc1OP(C)(=O)Nc1c(C)n(C)n(-c2ccccc2)c1=O (stereo not given),inactive: 8.36%
4,COc1ccc(OP(C)(=O)Nc2ccc(Br)cc2)cc1 (stereo not given),inactive: 19.2%
5,CCN(CC)CC(O)COC(=O)C(O)(c1ccccc1)C1CCCCC1 (stereo not given),inactive: -2.7%
6,CP(=O)(Nc1ccc(Cl)cc1)Oc1ccc(F)cc1 (stereo not given),inactive: -1.56%
7,CC(C)(C)c1ccc(OP(C)(=O)O)cc1,inactive: 4.6%
8,COc1ccccc1OP(C)(=O)Nc1ccccc1Br (stereo not given),inactive: -12%
9,CN(C)CCOC(=O)C(O)(c1ccccc1)C1CCCC1 (stereo not given),inactive: 0.539%
10,COc1ccc(OP(C)(=O)Nc2ccccn2)cc1 (stereo not given),inactive: 1.32%
11,COc1ccccc1OP(C)(=O)Nc1ccc(Br)cc1 (stereo not given),inactive: 3.23%
12,CCc1ccc(OP(C)(=O)O)cc1,inactive: -2.92%
13,COc1ccccc1OP(C)(=O)Nc1ccc(C)cc1C (stereo not given),inactive: 7.39%
14,CP(=O)(Nc1ccccn1)Oc1ccccc1 (stereo not given),inactive: -3.81%
15,Cc1c(NP(C)(=O)Oc2ccc(C(C)C)cc2)c(=O)n(-c2ccccc2)n1C (stereo not given),inactive: 9.82%
16,COc1ccc(OP(C)(=O)Nc2ccccc2Br)cc1 (stereo not given),inactive: 3.53%
17,COc1ccccc1OP(C)(=O)Nc1ccc(C)c(C)c1 (stereo not given),inactive: 5.11%
18,Cc1cc(C)cc(OP(C)(=O)Nc2cccc(C(F)(F)F)c2)c1 (stereo not given),inactive: -9.52%
19,CP(=O)(OCCOc1ccccc1)OCCOc1ccccc1,inactive: -0.468%
20,CP(=O)(Nc1ccc(Cl)cc1Cl)Oc1ccccc1 (stereo not given),inactive: 3.16%
